One assay deals with PDE1B (Homo sapiens (Human), UniProt Q01064). In words: PDE1 inhibition assay (PDE1B). The class given is biochemical. Conditions: 15 nM tritium labelled cAMP, 1 hr at room temperature, SPA beads; for pIC50: read-out: PDE1B, IC50. An excerpt:
(§1) Table 1 lists the IC50 value for inhibition of PDE1 by the compounds of the invention. […] PDE1 assays are described in the Experimental Section.

The chains behind the UniProt entries cited, without tags or fusion partners. Where a name states a change or a piece, a line headed by the entry shows the natural chain unless it says otherwise.
UniProt Q01064: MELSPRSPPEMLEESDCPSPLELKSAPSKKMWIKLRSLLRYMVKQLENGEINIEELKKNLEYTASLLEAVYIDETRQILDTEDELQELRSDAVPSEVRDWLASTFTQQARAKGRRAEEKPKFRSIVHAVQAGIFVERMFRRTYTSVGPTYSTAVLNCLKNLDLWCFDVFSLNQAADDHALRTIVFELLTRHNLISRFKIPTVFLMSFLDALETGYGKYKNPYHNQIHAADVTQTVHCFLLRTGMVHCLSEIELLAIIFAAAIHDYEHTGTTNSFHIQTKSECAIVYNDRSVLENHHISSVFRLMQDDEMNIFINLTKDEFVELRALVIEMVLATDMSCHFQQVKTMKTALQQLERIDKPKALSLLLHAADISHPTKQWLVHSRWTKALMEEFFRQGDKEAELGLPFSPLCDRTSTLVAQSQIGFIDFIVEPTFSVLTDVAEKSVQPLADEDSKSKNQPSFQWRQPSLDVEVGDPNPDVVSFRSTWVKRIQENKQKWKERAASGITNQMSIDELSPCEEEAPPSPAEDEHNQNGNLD
UniProt Q14123, whole entry: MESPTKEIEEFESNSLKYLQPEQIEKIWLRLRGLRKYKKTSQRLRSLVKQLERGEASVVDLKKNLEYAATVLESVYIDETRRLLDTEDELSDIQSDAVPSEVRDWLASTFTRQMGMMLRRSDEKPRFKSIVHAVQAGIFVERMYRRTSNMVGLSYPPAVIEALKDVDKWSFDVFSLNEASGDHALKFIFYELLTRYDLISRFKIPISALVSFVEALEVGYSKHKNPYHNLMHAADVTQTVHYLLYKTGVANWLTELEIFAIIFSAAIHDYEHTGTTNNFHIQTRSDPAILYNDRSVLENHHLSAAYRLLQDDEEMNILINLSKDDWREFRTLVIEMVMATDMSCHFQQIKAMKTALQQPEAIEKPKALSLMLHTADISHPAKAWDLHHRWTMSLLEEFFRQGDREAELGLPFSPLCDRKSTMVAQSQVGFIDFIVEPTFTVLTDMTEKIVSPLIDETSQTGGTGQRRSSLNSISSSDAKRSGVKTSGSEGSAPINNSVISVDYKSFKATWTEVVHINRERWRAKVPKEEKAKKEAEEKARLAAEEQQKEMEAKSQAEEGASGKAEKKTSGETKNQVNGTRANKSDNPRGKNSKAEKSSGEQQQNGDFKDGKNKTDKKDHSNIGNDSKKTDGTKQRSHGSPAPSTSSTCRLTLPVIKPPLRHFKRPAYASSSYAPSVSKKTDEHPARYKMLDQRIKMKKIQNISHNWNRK

The target of a further assay is PDE1C (Homo sapiens (Human), UniProt Q14123). It counts as biochemical. Particulars: 15 nM tritium labelled cAMP, 1 hr at room temperature, SPA beads.
Description: as §1

pIC50: −log10 of the molar value. Read-outs that look alike come from different tables or passages of the source.

Broadly, the IC50 is the midpoint of a concentration-inhibition curve. A word on the pIC50: it is the IC50 on a negative log10 scale, so that one unit is a factor of ten.

For `CCCOc1ncccc1-c1cc(NCc2cc[nH]n2)c2c(n1)c(C)nn2C(C)CC` (single isomer, unassigned) [Example 135, 3-methyl-1-[1-methylpropyl]-5-(2-propoxy-3-pyridyl)-N-(1H-pyrazol-3-ylmethyl)pyrazolo[4,3-b]pyridin-7-amine], the IC50 on PDE1B (PDE1B, IC50 (nM)) came out at 0.095 nM.
Regarding `CCOc1ncccc1-c1cc(NCc2nnn(C)n2)c2c(n1)c(C)nn2C(C)C` [Example 8, 5-(2-ethoxy-3-pyridyl)-1-isopropyl-3-methyl-N-[(2-methyltetrazol-5-yl)methyl]pyrazolo[4,3-b]pyridin-7-amine], the pIC50 at PDE1B was 9.47.
On the same count and under the same terms, under `CCOc1ncccc1-c1cc(NCc2cnn(C)c2)c2c(n1)c(C)nn2C(C)C` [Example 9, 5-(2-ethoxypyridin-3-yl)-1-isopropyl-3-methyl-N-((1-methyl-1H-pyrazol-4-yl)methyl)-1H-pyrazolo[4,3-b]pyridin-7-amine] stands 9.31; under `CCOc1ncccc1-c1cc(NCc2cc(C)no2)c2c(n1)c(C)nn2C(C)C` [Example 10, 5-(2-ethoxy-3-pyridyl)-1-isopropyl-3-methyl-N-[(3-methylisoxazol-5-yl)methyl]pyrazolo[4,3-b]pyridin-7-amine], 9.33.
The same measure, in the same setting: under `CCOc1ncccc1-c1cc(NCc2csc(C)n2)c2c(n1)c(C)nn2C(C)C` [Example 11, 5-(2-ethoxy-3-pyridyl)-1-isopropyl-3-methyl-N-[(2-methylthiazol-4-yl)methyl]pyrazolo[4,3-b]pyridin-7-amine] stands 9.14; under `CCOc1ncccc1-c1cc(NCc2ncn(C)n2)c2c(n1)c(C)nn2C(C)C` [Example 31, 5-(2-ethoxy-3-pyridyl)-1-isopropyl-3-methyl-N-[(1-methyl-1,2,4-triazol-3-yl)methyl]pyrazolo[4,3-b]pyridin-7-amine], 9.96.
Regarding `CCOc1ncccc1-c1cc(NCc2cc(C)no2)c2c(cnn2C(C)C)n1` [Example 42, 5-(2-ethoxy-3-pyridyl)-1-isopropyl-N-[(3-methylisoxazol-5-yl)methyl]pyrazolo[4,3-b]pyridin-7-amine], the negative logarithm of the IC50 (pIC50) on PDE1B was 8.24.
Same read-out and setting: under `CCOc1ncccc1-c1cc(NCc2noc(C)n2)c2c(cnn2C(C)C)n1` [Example 43, 5-(2-ethoxy-3-pyridyl)-1-isopropyl-N-[(5-methyl-1,2,4-oxadiazol-3-yl)methyl]pyrazolo[4,3-b]pyridin-7-amine] stands 8.62; under `CCOc1ncccc1-c1cc(NCc2cc(C)n(C)n2)c2c(cnn2C(C)C)n1` [Example 44, N-[(1,5-dimethylpyrazol-3-yl)methyl]-5-(2-ethoxy-3-pyridyl)-1-isopropyl-pyrazolo[4,3-b]pyridin-7-amine], 8.85.
Take `CCOc1ncccc1-c1cc(NCc2nc(C)co2)c2c(n1)c(C)nn2C(C)C` [Example 50, 5-(2-ethoxypyridin-3-yl)-1-isopropyl-3-methyl-N-((4-methyloxazol-2-yl)methyl)-1H-pyrazolo[4,3-b]pyridin-7-amine 2,2,2-trifluoroacetate]: at PDE1C, the pIC50 was 7.80.
Same read-out and setting: under `Cc1sccc1-c1cc(NCc2cnn(C)c2)c2c(n1)c(C)nn2C(C)C` [Example 65, 1-isopropyl-3-methyl-N-[(1-methylpyrazol-4-yl)methyl]-5-(2-methyl-3-thienyl)pyrazolo[4,3-b]pyridin-7-amine] stands 7.80.
Regarding `CCOc1ncccc1-c1cc(OCc2cnc(C)o2)c2c(n1)c(C)nn2C(C)C` [Example 72, 5-[[5-(2-ethoxy-3-pyridyl)-1-isopropyl-3-methyl-pyrazolo[4,3-b]pyridin-7-yl]oxymethyl]-2-methyl-oxazole], the pIC50 at PDE1B was 8.62.
For `CCOc1ncccc1-c1cc(NCc2ccncn2)c2c(n1)c(C)nn2C(C)C` [Example 73, 5-(2-ethoxy-3-pyridyl)-1-isopropyl-3-methyl-N-(pyrimidin-4-ylmethyl)pyrazolo[4,3-b]pyridin-7-amine], the pIC50 on PDE1B is 8.04.
Consider `CCOc1ncccc1-c1cc(NCc2ncccn2)c2c(n1)c(C)nn2C(C)C` [Example 74, 5-(2-ethoxy-3-pyridyl)-1-isopropyl-3-methyl-N-(pyrimidin-2-ylmethyl)pyrazolo[4,3-b]pyridin-7-amine], for which the negative-log IC50 (pIC50) on PDE1B was 9.47.
As for `CCOc1ncccc1-c1cc(NCc2nccc(C)n2)c2c(n1)c(C)nn2C(C)C` [Example 75, 5-(2-ethoxy-3-pyridyl)-1-isopropyl-3-methyl-N-[(4-methylpyrimidin-2-yl)methyl]pyrazolo[4,3-b]pyridin-7-amine], the pIC50 on PDE1B is 9.09.
On the same count and under the same terms, next, `Cc1nn(C(C)C)c2c(NCc3cccnc3C(F)(F)F)cc(-c3ccc[nH]c3=O)nc12` [Example 193, 3-[1-isopropyl-3-methyl-7-[[2-(trifluoromethyl)-3-pyridyl]methylamino]pyrazolo[4,3-b]pyridin-5-yl]-1H-pyridin-2-one]: 7.27; `CCCOc1ncccc1-c1cc(NCc2cn[nH]c2)c2c(n1)c(C)nn2C(C)C` [Example 196, 1-isopropyl-3-methyl-5-(2-propoxy-3-pyridyl)-N-(1H-pyrazol-4-ylmethyl)pyrazolo[4,3-b]pyridin-7-amine]: 8.77; `Cc1coc(-c2cc(NCc3cnn(C)c3)c3c(n2)c(C)nn3C(C)C)n1` [Example 202, 1-isopropyl-3-methyl-N-((1-methyl-1H-pyrazol-4-yl)methyl)-5-(4-methyloxazol-2-yl)-1H-pyrazolo[4,3-b]pyridin-7-amine]: 7.85.

The values above are taken from patent US10034861B2 (priority 2016, dated 2018).
